The results in this text go back to patent EP0331471A1, “High molecular weight prodrug derivatives of antiinflammatory drugs” (Larsen, Claus Selch, priority 1988, dated 1989).

Series [1] in a line: Hydrolysis (release kinetics) of dextran ester prodrugs in aqueous buffer solution. The format is physicochemical. The following applies: 0.05 M phosphate buffer pH 7.40, 37°C.
A short description of series [2]: Plasma concentration of intact conjugate after intravenous administration to rabbits (HP(SEC)). The format is in vivo. The settings on record: 1 ml of 10 % w/v solution, male rabbit. An excerpt:
A HP(SEC) method (High-performance size exclusion chromatography) was used for the determination of the intact dextran prodrugs and the blood concentrations of dextran-naproxen ester prodrugs (compounds in Examples 7 and 28) after intravenous administration in rabbits. […] In case of dextran-naproxen conjugates the column effluent was monitored by fluorescens detection (λex 330 nm, λem 360 nm). The other dextran conjugates were monitored spectrophotometrically in the UV range at an appropriate wavelength. […] Quantitation of the compounds was done by measurements of the areas in relation to those of standards chromatographed under the same conditions. […]
From the plasma concentration versus time profiles plasma half-lives for the T-40 and the T-70 dextran-naproxen ester conjugates of 58 and 90 min, respectively, were calculated (Fig.6). […] Although the amounts of conjugates excreted in the urine have not been measured the observed fine agreement between the experimentally and theoretically determined values of the initial plasma concentration indicates, that the conjugates are eliminated freely through the kidneys after intravenous administration without significant accumulation in the liver and other phagocytically active tissues. […]

In the case of “O-[(+)-6-Methoxy-α-methyl-2-naphthaleneactyl]-dextran T-70 [Example 1]”, in series [1], the “t(50%) at pH 7.40 and 37°C” value is 179 hours. Besides, in series [2], the plasma half-lives is reported as 90 min.
Turning to “O-[(+)-6-Methoxy-α-methyl-2-naphthaleneactyl]-dextran T-70 [Example 2]”, in series [1], the “t(50%) at pH 7.40 and 37°C” value came to 177 hours.
